The values below come from US20040209897A1 (Pharmacia Corporation, priority 2002, published 2004).

The chains behind the UniProt entries cited, without tags or fusion partners.
UniProt P49137, whole entry, species assumed: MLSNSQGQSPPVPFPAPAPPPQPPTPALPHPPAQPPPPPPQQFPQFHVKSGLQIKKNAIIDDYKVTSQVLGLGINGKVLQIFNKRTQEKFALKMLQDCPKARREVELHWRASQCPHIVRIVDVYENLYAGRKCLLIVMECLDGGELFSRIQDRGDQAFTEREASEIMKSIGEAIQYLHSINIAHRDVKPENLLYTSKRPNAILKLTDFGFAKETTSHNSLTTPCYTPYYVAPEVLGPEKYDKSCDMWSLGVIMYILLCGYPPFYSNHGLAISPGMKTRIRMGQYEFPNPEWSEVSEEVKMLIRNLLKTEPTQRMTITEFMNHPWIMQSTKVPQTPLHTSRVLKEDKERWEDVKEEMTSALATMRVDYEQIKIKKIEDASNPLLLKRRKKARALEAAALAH

Where a name gives a salt, the structure may show the parent alone.

For orientation: IC50 means the concentration that inhibits the measured activity by half.

The target of this experiment is Recombinant MAPKAPK2 (MK-2) (Homo sapiens, UniProt P49137). Nature of the experiment: Determination of MK-2 IC50 (HSP-peptide phosphorylation, anion exchange resin capture assay). To be noted: MAPKAP2 Avg. IC50. It is filed as biochemical.
Take `O=C1NCCc2[nH]c(-c3ccnc(-c4cccnc4)c3)cc21` [Example 268, 7-Methyl-2-(2-quinolin-3-ylpyridin-4-yl)-1,5,6,7-tetrahydro-4H-pyrrolo[3,2-c]pyridin-4-one trifluoroacetate]: the 50% inhibitory concentration (IC50) was 47.9 nM. On to `O=C1NCCc2[nH]c(-c3ccnc(/C=C/c4cccc(C(=O)N5CCOCC5)c4)c3)cc21` [Example 92, (2E)-3-{4-[4-(4-oxo-4,5,6,7-tetrahydro-1H-pyrrolo[3,2-c]pyridin-2-yl)pyridin-2-yl]phenyl}prop-2-enoic acid trifluoroacetate], for which the IC50 turned out to be 20.1 nM. Consider `N#[N+]c1c(-c2ccnc(-c3cccc(F)c3)c2)[nH]c2c1C(=O)NCC2` [Example 606, 2-{2-[(E)-2-(6-methoxy-2-naphthyl)vinyl]pyridin-4-yl}-1,5,6,7-tetrahydro-4H-pyrrolo[3,2-c]pyridin-4-one trifluoroacetate], for which the half-inhibitory concentration (IC50) turned out to be 359 nM. `O=C1NCCc2[nH]c(-c3ccnc(-c4ccc(CCCNCCCc5ccccc5)nc4)c3)cc21` [Example 228, 2-(6′-{[(1R)-1-phenylethyl]amino}-2,3′-bipyridin-4-yl)-1,5,6,7-tetrahydro-4H-pyrrolo[3,2-c]pyridin-4-one trifluoroacetate]: the IC50 stood at 39.3 nM. With `O=C(O)/C=C\C(=O)Nc1ccc(-c2cc(-c3cc4c([nH]3)CCNC4=O)ccn2)cc1` [Example 127, 2-[2-(1H-indazol-5-yl)pyridin-4-yl]-1,5,6,7-tetrahydro-4H-pyrrolo[3,2-c]pyridin-4-one], the half-inhibitory concentration (IC50) is 24.8 nM. To `O=C1NCCc2[nH]c(-c3cc(-c4ccccc4F)ncn3)cc21` [Example 696, 2-(2-{(E)-2-[4-(morpholin-4-ylmethyl)phenyl]vinyl}pyridin-4-yl)-1,5,6,7-tetrahydro-4H-pyrrolo[3,2-c]pyridin-4-one trifluoroacetate] belongs 1190 nM.

On to `O=C1NCCc2[nH]c(-c3ccnc(/C=C\c4c[nH]nc4-c4ccccc4)c3)cc21` [Example 229, 2-(6′-{[(1S)-1-phenylethyl]amino}-2,3′-bipyridin-4-yl)-1,5,6,7-tetrahydro-4H-pyrrolo[3,2-c]pyridin-4-one trifluoroacetate], for which the IC50 was 39.3 nM. To `O=C(CBr)Nc1ccc(-c2cc(-c3cc4c([nH]3)CCNC4=O)ccn2)cc1` [Example 3, 4-[4-(4-oxo-4,5,6,7-tetrahydro-1H-pyrrolo[3,2-c]pyridin-2-yl)pyridin-2-yl]benzoic acid trifluoroacetate] belongs 5.85 nM.
